Legend:
[1] = Pharmacokinetic evaluation in mice
From the text: (§1) In this study, CB-17 SCID male mice were selected as experimental animals for the test compounds, and LCMS/MS method was used to quantify plasma concentrations of the test compound and the reference compound intravenously injected or orally administered to mice at different time points, so as to evaluate the pharmacokinetic profile of the test drug in mice.
CB-17 SCID mice (male, 20 to 30 g, 7 to 10 weeks old, Beijing Vital River or Shanghai SLAC).
A clarified solution or suspension of the test compound was injected into mice via the tail vein (without fasting), or intragastrically administered to mice (without fasting). For intravenous injection, blood was collected via the jugular vein puncture at 0 h (pre-administration), 0.083 h, 0.25 h, 0.5 h, 1 h, 2 h, 4 h, 8 h, and 24 h after administration, and placed in an anticoagulant tube added with EDTA-K2. The mixture was thoroughly vortexed and mixed, and centrifuged at 13000 rpm for 10 minutes at 4° C. For oral administration, blood was collected via the jugular vein puncture at 0 h (pre-administration), 0.5 h, 1 h, 2 h, 4 h, 6 h, 8 h, and 24 h after administration, and placed in an anticoagulant tube added with EDTA-K2. The mixture was thoroughly vortexed and mixed, and centrifuged at 13000 rpm for 10 minutes. Plasma concentrations were determined by LC-MS/MS method, and relevant pharmacokinetic parameters were calculated using WinNonlin™ Version 6.3 (Pharsight, Mountain View, CA) pharmacokinetic software with non-compartmental model linear-log trapezoidal method.

[2] = Pharmacokinetic evaluation in rats
Procedure: as §1, with “SD” for “CB-17 SCID”, “rats” for “mice”, “rats.” for “mice.”
SD rats (male, Beijing Vital River).
A clarified solution or suspension of the test compound was injected into rats via the tail vein (without fasting), or intragastrically administered to rats (without fasting). For intravenous injection, blood was collected via the jugular vein puncture at 0 h (pre-administration), 0.25 h, 0.5 h, 1 h, 2 h, 4 h, 6 h, 8 h, 24 h, and 48 h after administration, and placed in an anticoagulant tube added with heparin sodium. The collected blood sample was placed on ice, and centrifuged to separate plasma within 1 hour (centrifugation conditions: 6000 g, 3 minutes, 2 to 8° C.). For oral administration, blood was collected via the jugular vein puncture at 0 h (pre-administration), 0.25 h, 0.5 h, 1 h, 2 h, 4 h, 6 h, 8 h, 24 h, and 48 h after administration, and placed in an anticoagulant tube added with heparin sodium. The collected blood sample was placed on ice, and centrifuged to separate plasma within 1 hour (centrifugation conditions: 6000 g, 3 minutes, 2 to 8° C.). Plasma concentrations were determined by LC-MS/MS method, and relevant pharmacokinetic parameters were calculated using WinNonlin™ Version 8.2.0 (Pharsight, Mountain View, CA) pharmacokinetic software with non-compartmental model linear-log trapezoidal method.

[3] = intravenous injection (1 mg/mL)
[4] = intravenous injection (2 mg/mL)

| SMILES | Area under the drug-time curve (0-last) [1, 3] | Half-life [1, 3] | Plasma clearance rate [1, 3] | Area under the drug-time curve (0-last) ([1]; oral administration (10 mg/mL)) | Bioavailability F ([1]; oral administration (10 mg/mL)) | Peak concentration ([1]; oral administration (10 mg/mL)) | Time to peak concentration ([1]; oral administration (10 mg/mL)) | Area under the drug-time curve (0-last) [2, 4] | Half-life [2, 4] | Plasma clearance rate [2, 4] | Area under the drug-time curve (0-last) ([2]; oral administration (10 mg/mL)) | Bioavailability F ([2]; oral administration (10 mg/mL)) | Peak concentration ([2]; oral administration (10 mg/mL)) | Time to peak concentration ([2]; oral administration (10 mg/mL)) |
| --- | --- | --- | --- | --- | --- | --- | --- | --- | --- | --- | --- | --- | --- | --- |
| N#Cc1ccc(O[C@H]2CC[C@H](NC(=O)c3ccc(N4CCC(CN5CCN(c6cccc7c6ccc6occ(C8CCC(=O)NC8=O)c67)CC5)CC4)nn3)CC2)cc1Cl (single isomer, unassigned) [WX016] | 6.192 µM·h | 31.4 h | 0.0846 L/h/kg | 30.541 µM·h | 49.3% | 1770 nmol/L | 24 h | 6.949 µM·h | 21.2 h | 0.283 L/h/kg | 14.716 µM·h | 42.35% | 451 nmol/L | 13.3 h |
| N#Cc1ccc(O[C@H]2CC[C@H](NC(=O)c3ccc(N4CCC(CN5CCN(c6cccc7c6ccc6occ(C8CCC(=O)NC8=O)c67)CC5)CC4)nn3)CC2)cc1Cl (single isomer, unassigned) [WX017] | 4.651 µM·h | 8.31 h | 0.235 L/h/kg | 22.39 µM·h | 48.1% | 1227 nmol/L | 24 h | 5.846 µM·h | 10.2 h | 0.412 L/h/kg | 7.42 µM·h | 25.38% | 349 nmol/L | 7.33 h |
